Data taken from PubChem BioAssay AID539 (SRMLSC, 2006).
The entries are a selection whose mix differs from that of the whole data set. Calls of active or inactive are those of the source.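 The calls were made as follows: active = top-ranked compounds by inhibition in the single 10 µM screen, taking a fixed number of the strongest; inactive = the rest, inconclusive results apart.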

system: phosphomevalonate kinase (Streptococcus pneumoniae D39); experiment: phosphomevalonate kinase enzyme inhibition – biochemical, mevalonate pathway, pilot trial included, primary screen (AID 539); settings: purified PMK, PK/LDH-coupled NADH absorbance 340 nm; at 10 µM; hits give high values;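 also: 0% = full reaction with DMSO carrier and 100% = background rate without enzyme reaction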

Structure (SMILES)	inhibition
O=P(Nc1nccs1)(c1ccccc1)c1nc2ccccc2s1 (stereo unspecified)	active: 78%
